The list shows a part of the results, in another mix than the full data. Calls of active or inactive are those of the source.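 Rule for the calls: active = inhibition above the mean over all tested compounds plus 3 SD (cut at about 3.6% in these data); inactive = the rest.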
Experiment: DAX1 (NR0B1) inhibitors on StAR promoter, primary screen, cell-based, luminescence, SF-1 (NR5A1), full-length DAX-1 (AID 652010);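 note: 0% = DAX-1 cells with DMSO and 100% = cells lacking DAX-1 with DMSO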
Details: HEK293T StAR-luciferase reporter, SF-1/DAX-1 repression relief; at 6.8 µM; stronger effect = higher value

Row | Structure (SMILES) | inhibition
1 | N#Cc1ccc(C(=O)NCC2(N3CCCCC3)CCCCC2)cc1 | inactive: 1.81%
2 | CC(C)(C)OC(=O)N1CCC(N(C(=O)c2ccccc2)c2ccc(Cl)cc2)CC1 | inactive: -0.31%
3 | CC(C)(C)n1nnnc1C(c1cccc2ccccc12)N1CCC(n2c(=O)[nH]c3ccccc32)CC1 (configuration not stated) | inactive: 0.09%
4 | CN(C)C1(CNC(=O)c2cccc(C#N)c2)CCCCC1 | inactive: 0.54%
5 | c1ccc(CN2CCC(Nc3ccccc3)CC2)cc1 | inactive: -0.4%
6 | C/C(N)=N\P(=O)(Oc1ccccc1)Oc1ccccc1 | inactive: 0.48%
7 | Cc1cc(N(CCCl)CCCl)ccc1C=O | inactive: -3.45%
8 | CCCN1CCC(Nc2cc(OC)cc(OC)c2)CC1 | inactive: 0.19%
9 | O=c1[nH]c2ccccc2n1C1CCN(C(c2ccccc2)c2nnnn2C2CCCC2)CC1 (configuration not stated) | inactive: -1.93%
10 | O=c1[nH]c2ccccc2n1C1CCN(C(c2cccs2)c2nnnn2C2CCCCC2)CC1 (configuration not stated) | inactive: -2.63%
11 | NC(=O)C1(Nc2ccccc2)CCN(Cc2ccccc2)CC1 | inactive: 0.85%
12 | COc1ccc(C(=O)NCC2(N3CCOCC3)CCCCC2)cc1OC | inactive: 2.93%
13 | O=c1[nH]c2ccccc2n1C1CCN(C(c2ccnc3ccccc23)c2nnnn2C2CCCC2)CC1 (configuration not stated) | inactive: 2.02%
14 | CCCCn1nnnc1C(c1ccccc1)N1CCC(n2c(=O)[nH]c3ccccc32)CC1 (configuration not stated) | inactive: -1.95%
15 | COc1cc(C(=O)NCC2(N3CCOCC3)CCCCC2)cc(OC)c1C | inactive: 1.64%
16 | O=C(NCC1(N2CCOCC2)CCCCC1)c1cc(Br)ccc1Cl | inactive: -1.69%
17 | O=C(OC1CN2CCC1CC2)C1c2ccccc2C=Cc2ccccc21 (configuration not stated) | inactive: -0.12%
18 | O=c1[nH]c2ccccc2n1C1CCN(C(c2cccs2)c2nnnn2C2CCCC2)CC1 (configuration not stated) | inactive: -2.65%
19 | CCCCn1nnnc1C(c1cccc(OC)c1OC)N1CCC(n2c(=O)[nH]c3ccccc32)CC1 (configuration not stated) | inactive: -3.69%
20 | COc1cccc(C(c2nnnn2C(C)(C)C)N2CCC(n3c(=O)[nH]c4ccccc43)CC2)c1OC (configuration not stated) | inactive: -0.94%
21 | CCOC(=O)N1CCC(Nc2ccc(C)cc2)CC1 | inactive: -0.41%

Row | Structure (SMILES) | inhibition
22 | N/C(=N\O)c1c(N)no[n+]1[O-] | inactive: 0.38%
23 | CC(C)(C)OC(=O)N1CCC(Nc2ccccc2)CC1 | inactive: -1.27%
24 | NN(c1ccccc1)C1CCN(CCc2ccccc2)CC1 | inactive: -0.29%
25 | O=C(O)C1(Nc2ccccc2)CCN(Cc2ccccc2)CC1 | inactive: -0.29%
26 | CCCOc1ccc(C(=O)NCC2(N(C)C)CCCCC2)cc1 | inactive: -0.02%
27 | O=c1[nH]c2ccccc2n1C1CCN(C(c2cc3ccccc3o2)c2nnnn2C2CCCC2)CC1 (configuration not stated) | inactive: -0.12%
28 | CCOc1ncccc1C(=O)NCC1(N2CCOCC2)CCCCC1 | inactive: -0.15%
29 | CN1CCC(Nc2ccc(F)c(Cl)c2)CC1 | inactive: -0.8%
30 | CN1CCC(Nc2ccc(Cl)cc2)CC1 | inactive: 0.95%
31 | COc1cccc(C(=O)N(c2cc(C)cc(C)c2)C2CCN(C(=O)OC(C)(C)C)CC2)c1 | inactive: 0.26%
32 | COc1cccc(C(c2nnnn2C2CCCC2)N2CCC(n3c(=O)[nH]c4ccccc43)CC2)c1OC (configuration not stated) | inactive: -3.85%
33 | COc1cc(OC)cc(C(=O)NCC2(N3CCOCC3)CCCCC2)c1 | inactive: 0.59%
34 | CCC(CO)(C(=O)OC1CN2CCC1CC2)c1ccccc1 (configuration not stated) | inactive: 1.14%
35 | Cc1ccc(C(=O)NCC2(N3CCCCC3)CCCCC2)o1 | inactive: 2.13%
36 | Fc1ccccc1NC1CCN(Cc2ccccc2)CC1 | inactive: 0.21%
37 | Cc1ccc(NC2(C#N)CCN(Cc3ccccc3)CC2)cc1 | inactive: 0.3%
38 | CC(=O)N(c1ccccc1)C1CCNCC1 | inactive: -0.13%
39 | COc1cccc(C(c2nnnn2C2CCCCC2)N2CCC(n3c(=O)[nH]c4ccccc43)CC2)c1OC (configuration not stated) | inactive: -4.85%
40 | CCC(c1nnnn1C1CCCCC1)N1CCC(n2c(=O)[nH]c3ccccc32)CC1 (configuration not stated) | inactive: 1.35%
41 | O=c1[nH]c2ccccc2n1C1CCN(C(c2ccnc3ccccc23)c2nnnn2C2CCCCC2)CC1 (configuration not stated) | inactive: 1.58%
42 | COc1cc(OC)cc(C(=O)NCC2(N3CCCCC3)CCCCC2)c1 | inactive: 0.76%

Row | Structure (SMILES) | inhibition
43 | O=C(NCC1(N2CCCCC2)CCCCC1)c1ccco1 | inactive: -2.13%
44 | Cn1c(=O)[nH]cc(N(CCCl)CCCl)c1=O | inactive: 0.63%
45 | CN(C)c1ccc(C(=O)NCC2(N3CCCCC3)CCCCC2)cc1 | active: 4.92%
46 | Cc1ccccc1NC1(C#N)CCN(Cc2ccccc2)CC1 | inactive: 0.18%
47 | CC(C)(C)n1nnnc1C(c1ccnc2ccccc12)N1CCC(n2c(=O)[nH]c3ccccc32)CC1 (configuration not stated) | inactive: 3.17%
48 | CCN1CCC(Nc2cccc(F)c2)CC1 | inactive: 0.24%
49 | COc1ccc(C(c2nnnn2C2CCCCC2)N2CCC(n3c(=O)[nH]c4ccccc43)CC2)cc1 (configuration not stated) | inactive: -0.6%
50 | O=C(NCC1(N2CCCCC2)CCCCC1)c1ccc(F)cc1 | inactive: 0.13%
51 | CCCCOc1ccc(C(=O)NCC2(N3CCOCC3)CCCCC2)cc1 | inactive: -0.3%
52 | O=P1(N(CCCl)CCCl)SCCCS1 | inactive: -1.08%
53 | CCCCn1nnnc1C(c1cc2ccccc2o1)N1CCC(n2c(=O)[nH]c3ccccc32)CC1 (configuration not stated) | inactive: 0.3%
54 | CCOC(=O)N1CCC(Nc2ccc(F)cc2)CC1 | inactive: 0.01%
55 | COc1ccc(NC2CCN(CCc3ccccc3)CC2)c(OC)c1 | inactive: 0.59%
56 | CC(C)(C)n1nnnc1C(c1ccccc1)N1CCC(n2c(=O)[nH]c3ccccc32)CC1 (configuration not stated) | inactive: 1.77%
57 | O=C1CCN(Cc2ccccc2)CC1 | inactive: 1.07%
58 | CCOc1ccc(C)cc1CN(CCCl)CCCl | inactive: -0.17%
59 | COc1cc(C(=O)NCC2(N(C)C)CCCCC2)ccc1OC(F)F | inactive: -0.04%
60 | CCOC(=O)N1CCC(Nc2cccc(C)c2)CC1 | inactive: -0.15%
61 | O=c1[nH]c2ccccc2n1C1CCN(C(c2cccc3ccccc23)c2nnnn2C2CCCC2)CC1 (configuration not stated) | inactive: 2.62%
62 | O=c1[nH]c2ccccc2n1C1CCN(C(c2ccccc2)c2nnnn2C2CCCCC2)CC1 (configuration not stated) | inactive: 0.18%

From PubChem BioAssay AID652010 (The Scripps Research Institute Molecular Screening Center, 2013)
